Laboratory results from publication PMC3967794 (Journal of medicinal chemistry, 2014).
Marks after values point to notes of the source that are not given here.

Assays:
washed human platelets = details: 10 µM, PAR4-AP
[1] = system: human primary donor islets; details: 10 µM, ELISA
[2] = in the presence of NADPH
[3] = in the presence of NADPH; Pharmaron
[4] = compared with 35

| SMILES | inhibition of platelet aggregation (in words) (washed human platelets) | inhibition of AA/IONO-induced 12-HETE production [1] | microsomal stability T1/2 (rat) [2] | microsomal stability T1/2 (mouse) [3] | stability to glutathione (5 mM glutathione) | degradation in aqueous buffers (pH 2–9) | PBS buffer (pH 7.4) stability at 48 h (pH 7.4, 48 h) [%] | rate of glucuronidation (in words) [4] |
| --- | --- | --- | --- | --- | --- | --- | --- | --- |
| COc1cccc(CNc2ccc(S(=O)(=O)Nc3nc4ccccc4s3)cc2)c1O [Compound 35, N-(Benzo[d]thiazol-2-yl)-4-((2-hydroxy-3-methoxybenzyl)-amino)benzenesulfonamide] | did not inhibit platelet aggregation | significant inhibition | >30 (rat) min | >300 ^a (mouse) min | stable | no degradation | 100 |  |
| O=S(=O)(Nc1nc2ccccc2s1)c1ccc(NCc2cccc(Cl)c2O)cc1 [Compound 71] |  |  |  |  |  |  |  | did not change the rate of glucuronidation |
